Test results published in US6812210B2, “Urocortin-III and uses thereof” (priority 2001, dated 2004).
Changes are numbered by the printed parent chain. Like-named read-outs stand apart in the source and are kept apart here.

Amino acid sequences for entries named in this document (tags omitted). Residues count along the entry.
UniProt P35353, 24-415: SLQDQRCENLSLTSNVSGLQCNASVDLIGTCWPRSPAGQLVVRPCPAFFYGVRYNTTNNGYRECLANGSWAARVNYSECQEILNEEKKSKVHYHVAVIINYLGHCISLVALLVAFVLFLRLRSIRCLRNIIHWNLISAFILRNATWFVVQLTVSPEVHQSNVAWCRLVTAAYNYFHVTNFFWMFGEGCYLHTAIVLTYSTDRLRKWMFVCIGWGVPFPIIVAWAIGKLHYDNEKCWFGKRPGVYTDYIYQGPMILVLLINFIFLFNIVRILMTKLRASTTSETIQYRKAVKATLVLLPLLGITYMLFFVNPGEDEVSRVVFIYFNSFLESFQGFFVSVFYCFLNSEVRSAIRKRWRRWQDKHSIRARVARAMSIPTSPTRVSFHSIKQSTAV

Assays:
hCRF-R1 [1] = molecular target: T1, hCRF-R1 (Homo sapiens, UniProt P34998); assay: Competitive displacement of [125I-Tyr0,Glu1,Nle17]-sauvagine from membranes of CHO cells stably expressing hCRF-R1; settings: read-out: Binding to Membranes from CHO cells stably expressing hCRF-R1 (Ki); three to six independent experiments; average from log10 values
T1 construct: expressed in transfected cells
T1 sequence (P34998 24-415): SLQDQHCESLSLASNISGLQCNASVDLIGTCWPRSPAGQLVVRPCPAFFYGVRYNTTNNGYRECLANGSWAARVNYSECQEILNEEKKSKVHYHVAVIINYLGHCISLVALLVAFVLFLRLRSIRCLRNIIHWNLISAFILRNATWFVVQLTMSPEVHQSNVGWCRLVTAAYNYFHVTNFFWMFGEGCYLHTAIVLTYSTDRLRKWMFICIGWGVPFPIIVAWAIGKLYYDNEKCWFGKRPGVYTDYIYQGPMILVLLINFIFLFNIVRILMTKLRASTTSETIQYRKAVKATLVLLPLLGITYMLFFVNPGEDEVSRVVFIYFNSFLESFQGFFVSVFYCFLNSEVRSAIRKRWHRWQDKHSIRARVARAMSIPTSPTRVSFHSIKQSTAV

CRF-R1 = molecular target: T2, CRF-R1 (Rattus norvegicus, UniProt P35353); assay: cAMP accumulation in primary rat anterior pituitary cells expressing endogenous CRF-R1; assay type: cell-based; settings: read-out: EC50, cAMP accumulation in primary rat anterior pituitary cells; FIG. 3B; stimulated for 45 min
T2 construct: cells expressing endogenous CRF-R1 (cultured primary anterior pituitary cells, (5)) or CRF-R2β (A7r5 cells, (27)); endogenous in cells; host or cells: primary rat anterior pituitary cells in culture
T2 sequence (P35353 24-415): T1 sequence (P34998 24-415) with H6R, S9N, A13T, I16V, M153V, G163A, I209V, Y229H, H356R
Protocol: The abilities of Ucn II and Ucn III to activate adenylate cyclase in cells expressing endogenous CRF-R1 (cultured primary anterior pituitary cells, (5)) or CRF-R2β (A7r5 cells, (27)). Rat aortic smooth muscle cells, A7r5, were plated into 48-well culture dishes and allowed to recover for 48 h. Cells were starved in DMEM/0.2% FBS overnight before the experiment. The cells were preincubated with 0.1 mM 3-isobutyl-1-methylxanthine for 30 min and then exposed to peptides for 20 min at 37° C. Rat anterior pituitary cells were established in culture (28) and treated with test peptides for 45 min at 37° C. Intracellular cAMP was extracted from all cells and measured from triplicate wells using a radioimmunoassay kit (Biomedical Technologies). Potencies were determined using the PRISM […].

hCRF-R1 [2] = molecular target: T1, hCRF-R1; assay: cAMP accumulation in CHO cells stably expressing hCRF-R1; assay type: cell-based; settings: read-out: cAMP in CHO cells stably expressing hCRF-R1 (EC50), peptides for 20 min at 37° C

Substance: urocortin [Urocortin (rat), reference compound]
- Ki (hCRF-R1 [1]): 0.32 nM
- EC50 (CRF-R1): 2.3 nM
- EC50 (hCRF-R1 [2]): 0.15 nM
- EC50 (hCRF-R1 [2]; listed as Ucn): ~0.15 nM
